One molecule from US20240309073A1 (SERUM INSTITUTE OF INDIA PRIVATE, published 2024) can be followed below.

The target in assay [1] is T1, Dengue virus serotype DV1 (Dengue virus serotype 1 (DV1), UniProt P17763 281-775). Briefly: cell-based or functional assay.
Assay [2] has as its target Dengue virus serotype DV3 (Dengue virus serotype 3 (DV3), UniProt Q6YMS4 281-773). As to the kind of experiment: cell-based or functional assay.
Assay [3] has as its target T2, EDIII protein of DV1 (Dengue virus serotype 1 (DV1), UniProt P17763 576-675).
T2 construct: domain: EDIII; also called EDIII protein of DV1 antigen
Briefly: indirect ELISA on immobilised EDIII protein of DV1; formulation stored at 40° C., 0 day. (An ELISA detects its analyte on a solid surface through an enzyme-linked reagent.)

In assay [4] the target is T2, EDIII protein of DV1. Briefly: indirect ELISA on immobilised EDIII protein of DV1; formulation stored at 40° C., 14 days.
For assay [5], the target named is T2, EDIII protein of DV1. Briefly: indirect ELISA on immobilised EDIII protein of DV1; formulation stored at 40° C., 42 days.
The target in assay [6] is T2, EDIII protein of DV1. Briefly: indirect ELISA on immobilised EDIII protein of DV1; formulation stored at 40° C., 35 days.
Assay [7] has as its target T1, Dengue virus serotype DV1. Briefly: cell-based or functional assay. The source holds these as a separate data set.
Assay [8] addresses T2, EDIII protein of DV1. As to the kind of experiment: indirect ELISA on immobilised EDIII protein of DV1; formulation stored at 40° C., 21 days.
The target of assay [9] is T2, EDIII protein of DV1. As to the kind of experiment: indirect ELISA on immobilised EDIII protein of DV1; formulation stored at 40° C., 28 days.

B1: Dengue (VIS513) Monoclonal antibody (antibody, human IgG1, kappa, V domains shown)
VH: QVQLVQSGAEVKKPGASVKVSCKAGFNIKDVYMSWVRQAPEQGLEWMGRIDPENGDTKYDPKLQGRVTMTADTSTNTAYMELRSLRSDDTAVYYCARGWEGFAYWGQGTLVTVSS
VL: DIVMTQSPASLAVSLGERATISCRASENVDKYGNSFMHWYQQKPGQPPKLLIYRASELQWGVPDRFSGSGSGTDFTLTISSLQAEDVAVYYCQRSNEVPWTFGQGTKLEIKR
notes: also called Dengue Mab (VIS513); Dv-Mab
Regarding B1, in [1], the “EC50 (ng/ml) by PRNT assay; Batch 1, stored at 2-8° C., 0 day” value was determined as 47.1 ng/mL; the “EC50 (ng/ml) by PRNT assay; Batch 1, stored at 2-8° C., 3 months” value was 49.7 ng/mL; the “EC50 (ng/ml) by PRNT assay; Batch 1, stored at 2-8° C., 6 months” value came out at 23.9 ng/mL; the “EC50 (ng/ml) by PRNT assay; Batch 1, stored at 2-8° C., 9 months” value was 24.1 ng/mL. For the same molecule, in assay [1], the “EC50 (ng/ml) by PRNT assay; Batch 2, stored at 2-8° C., 0 day” value amounted to 21 ng/mL; the “EC50 (ng/ml) by PRNT assay; Batch 2, stored at 2-8° C., 3 months” value is 21 ng/mL; the “EC50 (ng/ml) by PRNT assay; Batch 2, stored at 2-8° C., 6 months” value is 16.1 ng/mL; the “EC50 (ng/ml) by PRNT assay; Batch 2, stored at 2-8° C., 9 months” value was 29.4 ng/mL. Besides, in assay [2], the “EC50 (ng/ml) by PRNT assay; Batch 2, stored at 2-8° C., 3 months” value was determined as 24.1 ng/mL. Moreover, the “potency (%) by indirect ELISA (% Activity relative to reference standard)” value with EDIII protein of DV1 [3] was 70.3%. Further, in the assay with EDIII protein of DV1 [4], the “potency (%) by indirect ELISA (% Activity relative to reference standard)” value was determined as 82.8%. The “potency (%) by indirect ELISA (% Activity relative to reference standard)” value in the assay with EDIII protein of DV1 [5] amounted to 90.8%. Also, in the assay with EDIII protein of DV1 [6], the “potency (%) by indirect ELISA (% Activity relative to reference standard)” value came out at 89.7%. In addition, in [7], the “EC50 (ng/ml) by PRNT assay; Batch 1, stored at 25° C., 0 day” value turned out to be 47.1 ng/mL; the “EC50 (ng/ml) by PRNT assay; Batch 1, stored at 25° C., 30 days” value turned out to be 29.8 ng/mL; the “EC50 (ng/ml) by PRNT assay; Batch 2, stored at 25° C., 0 day” value turned out to be 21 ng/mL; the “EC50 (ng/ml) by PRNT assay; Batch 2, stored at 25° C., 30 days” value turned out to be 28.3 ng/mL. Besides, the “potency (%) by indirect ELISA (% Activity relative to reference standard)” value in the assay with EDIII protein of DV1 [8] was found to be 96.2%. Moreover, the “potency (%) by indirect ELISA (% Activity relative to reference standard)” value with EDIII protein of DV1 [9] came to 71.9%.
